# Laboratory results reported in article PMC4460250, “Systems Pharmacology Dissecting Holistic Medicine for Treatment of Complex Diseases: An Example Using Cardiocerebrovascular Diseases Treated by TCM” (Evidence-based Complementary and Alternative Medicine : eCAM, 2015).
# Assays:
# [1] = PreHIA data set, value given as fraction; cited from earlier work
# [2] = Human intestinal absorption percentage values of the PreHIA data set (732 compounds, Table S2); conditions: class from HIA value
compound,measurement,setting,value
O=P1(N(CCCl)CCCl)OCCCN1CCCl (centres unmarked),HIA(Human Intestinal Absorption),[1],1
same,Class(High: HIA value ≥0.7; Low: HIA value < 0.7),[2],High (High: HIA value ≥0.7)
